This is an account of results in article PMC5418926, “A Functional Role for the Monomethylated Gln-51 and Lys-53 Residues of the 49GGQTK53 Motif of eL42 from Human 80S Ribosomes” (The Open Biochemistry Journal, 2017).

For this experiment, the target named is human recombinant eL42-Δ(GGQTK) variant, His-tagged (human, UniProt P83881 1-106, Δ(GGQTK), residues 49-GGQTK-53 deleted). The experiment in a line: SPR; Biacore 3000; His-tagged eL42 species immobilised by amine coupling on a CM5 chip; eRF1 or EF-3 as analyte; 25°C, HBS-EP (10 mM HEPES pH 7.4, 150 mM NaCl, 3 mM EDTA, 0.005% P20), 5 µL/min; 1:1 Langmuir fit; mean of 3 experiments. Conditions: both partners purified.

B1: elongation factor 3 (EF-3) from S. cerevisiae, His-tagged (natural protein)
chain: MSDSQQSIKVLEELFQKLSVATADNRHEIASEVASFLNGNIIEHDVPEHFFGELAKGIKDKKTAANAMQAVAHIANQSNLSPSVEPYIVQLVPAICTNAGNKDKEIQSVASETLISIVNAVNPVAIKALLPHLTNAIVETNKWQEKIAILAAISAMVDAAKDQVALRMPELIPVLSETMWDTKKEVKAAATAAMTKATETVDNKDIERFIPSLIQCIADPTEVPETVHLLGATTFVAEVTPATLSIMVPLLSRGLNERETGIKRKSAVIIDNMCKLVEDPQVIAPFLGKLLPGLKSNFATIADPEAREVTLRALKTLRRVGNVGEDDAIPEVSHAGDVSTTLQVVNELLKDETVAPRFKIVVEYIAAIGADLIDERIIDQQAWFTHITPYMTIFLHEKKAKDILDEFRKRAVDNIPVGPNFDDEEDEGEDLCNCEFSLAYGAKILLNKTQLRLKRARRYGICGPNGCGKSTLMRAIANGQVDGFPTQEECRTVYVEHDIDGTHSDTSVLDFVFESGVGTKEAIKDKLIEFGFTDEMIAMPISALSGGWKMKLALARAVLRNADILLLDEPTNHLDTVNVAWLVNYLNTCGITSITISHDSVFLDNVCEYIINYEGLKLRKYKGNFTEFVKKCPAAKAYEELSNTDLEFKFPEPGYLEGVKTKQKAIVKVTNMEFQYPGTSKPQITDINFQCSLSSRIAVIGPNGAGKSTLINVLTGELLPTSGEVYTHENCRIAYIKQHAFAHIESHLDKTPSEYIQWRFQTGEDRETMDRANRQINENDAEAMNKIFKIEGTPRRIAGIHSRRKFKNTYEYECSFLLGENIGMKSERWVPMMSVDNAWIPRGELVESHSKMVAEVDMKEALASGQFRPLTRKEIEEHCSMLGLDPEIVSHSRIRGLSGGQKVKLVLAAGTWQRPHLIVLDEPTNYLDRDSLGALSKALKEFEGGVIIITHSAEFTKNLTEEVWAVKDGRMTPSGHNWVSGQGAGPRIEKKEDEEDKFDAMGNKIAGGKKKKKLSSAELRKKKKERMKKKKELGDAYVSSDEEF
notes: S. cerevisiae elongation factor 3; The expression strain was a gift of Maria Mateyak; also called eEF-3; yeast EF-3; source: E. coli TKBL40 (BL21, His-tagged eEF-3 in pET11a), purified (His GraviTrap)
As a reminder, the koff is the rate constant with which the complex falls apart. As usually defined, the kon is a measure of how fast the partners come together. For B1, the koff was 0.000218 s⁻¹ and the kon amounted to 23 M⁻¹ s⁻¹.
